{"sequences": {"note": "By UniProt entry, the sequences of proteins in these tests, tags left out. Where a name states a change or a piece, a line headed by the entry shows the natural chain unless it says otherwise.", "UniProt Q62758": "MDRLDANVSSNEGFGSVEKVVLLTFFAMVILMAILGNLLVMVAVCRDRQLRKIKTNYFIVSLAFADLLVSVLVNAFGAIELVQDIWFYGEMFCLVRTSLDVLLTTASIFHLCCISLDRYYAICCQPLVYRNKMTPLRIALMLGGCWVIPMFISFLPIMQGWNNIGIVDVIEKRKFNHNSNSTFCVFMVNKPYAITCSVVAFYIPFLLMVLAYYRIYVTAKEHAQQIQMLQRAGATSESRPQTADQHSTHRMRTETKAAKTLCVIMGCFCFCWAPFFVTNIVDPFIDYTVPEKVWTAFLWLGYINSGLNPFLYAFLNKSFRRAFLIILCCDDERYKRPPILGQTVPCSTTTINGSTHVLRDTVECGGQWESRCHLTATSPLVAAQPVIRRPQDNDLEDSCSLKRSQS"}, "source": "BindingDB's records for PubMed 8226867", "about": "(Synaptic Pharmaceutical, 1993)", "target": "5-hydroxytryptamine receptor 4 (Rattus norvegicus, UniProt Q62758)", "note": "pKi: −log10 of the molar value.", "data": [{"smiles": "NCCc1c[nH]c2ccc(O)cc12", "note": "[[3H]-5-HT]", "values": [{"measurement": "pKi", "value": 6.70}]}]}
